Paper PMC4890168 (Journal of medicinal chemistry, 2016)

Test system: cardiomyocytes isolated from adult mice
Experiment: Contractility in mouse cardiomyocytes
Conditions: compared with lead 2; isoproterenol stimulation

CC1=C(C(=O)Nc2ccc3[nH]ncc3c2)C(c2ccc(F)c(C(=O)NCc3ccccn3)c2)NC(=O)N1 (stereo not shown) [Compound 12h, 4-(4-Fluoro-3-((pyridin-2-ylmethyl)carbamoyl)phenyl)-N-(1H-indazol-5-yl)-6-methyl-2-oxo-1,2,3,4-tetrahydropyrimidine-5-carboxamide]
potency at stimulating cardiomyocyte contraction: equivalent to or slightly more potent than the lead 2
